{"source": "patent EP4410284A1", "about": "“COMPOUND AND METHOD FOR THE TREATMENT OF ZELLWEGER SPECTRUM DISORDER” (Apteeus, priority 2023, dated 2024)", "key": {"[1]": {"test_system": "GM16513 cells", "format": "cell-based", "conditions": "3 days, PI positive cells (dead cells)"}, "[2]": {"test_system": "PEX405 cells", "format": "cell-based", "conditions": "3 days, PI positive cells (dead cells)"}}, "note": "Like-named read-outs stand apart in the source and are kept apart here."}
{"substance": "Oxamflatin", "values": [{"measurement": "% PI+ cells", "setting": "[1]; 1.3 µM", "result": 5, "unit": "%"}, {"measurement": "% PI+ cells", "setting": "[1]; 10 µM", "result": 18, "unit": "%"}, {"measurement": "% PI+ cells", "setting": "[2]; 1.3 µM", "result": 2, "unit": "%"}, {"measurement": "% PI+ cells", "setting": "[2]; 10 µM", "result": 36, "unit": "%"}]}
